“And” between values parts separate entries of the source, which are not always exact repeats. Identical values can stand only once.
What was measured:
[1] = tested on: human LS174T colon carcinoma; assay: Antitumor efficacy study, LS174T xenograft; settings: for Ns (mice surviving) / Median Tumor Burden: Day 114; for Median TTE: endpoint 1500 mg; for Maximum MBW loss: tumor-bearing mice
[2] = tested on: nude mice; assay: Determination of maximum tolerable dose (MTD) for CDP-CPT conjugates
[3] = Group 3: 100 mg irinotecan/kg i.p. Qwk x 3

## CC[C@@]1(O)C(=O)OCc2c1cc1n(c2=O)Cc2cc3ccccc3nc2-1
[1]; Group 2: 9 mg/kg i.p. Q4D x 2
  Ns (mice surviving): −(0)
  Median TTE: 51.4 days
  Maximum MBW loss: 13.1%

## CCc1c2c(nc3ccc(OC(=O)N4CCC(N5CCCCC5)CC4)cc13)-c1cc3c(c(=O)n1C2)COC(=O)[C@]3(O)CC
[1]; [3]
  Median Tumor Burden: 1152 mg
  Ns (mice surviving): 3
  Median TTE: 68.7 days
[1]; Group 3: 100 mg irinotecan/kg i.p. Qwk x 3, listed as irinotecan
  Median Tumor Burden: 1,152 mg

## Poly(CDDCys-PA-PEG)-Gly-CPT
[1]; 4.5 mg CPT/kg i.v. Q4D x 3
  Median Tumor Burden: 668 mg
  Ns (mice surviving): 2
  Median TTE: 74.2 days
[1]; 9 mg CPT/kg i.v. Q4D x 3
  Median Tumor Burden: 394 mg
  Ns (mice surviving): 4
[1]; 9 mg CPT/kg i.v. Q4D x 3, 114 days = maximum possible
  Median TTE: 114 days and 114.0 days
[1]; at MTD, 9 mg CPT/kg i.v. Q4D x 3
  Maximum MBW loss: 3.4%
[2]; 2.25 mg CPT/kg i.v. Days 1, 5, 9
  NTR/N (treatment-related deaths to mice treated): 0/5
[2]; 4.5 mg CPT/kg i.v. Days 1, 5, 9
  NTR/N (treatment-related deaths to mice treated): 0/5
[2]; 9 mg CPT/kg i.v. Days 1, 5, 9
  NTR/N (treatment-related deaths to mice treated): 0/5
[2]; 18 mg CPT/kg i.v. Days 1, 5, 9
  NTR/N (treatment-related deaths to mice treated): 3/3
[2]; 36 mg CPT/kg i.v. Days 1, 5, 9
  NTR/N (treatment-related deaths to mice treated): 3/3
[2]; 54 mg CPT/kg i.v. Days 1, 5, 9
  NTR/N (treatment-related deaths to mice treated): 3/3
[2]; i.v. Days 1, 5, 9, non-tumor bearing nude mice
  MTD: 9 mg CPT/kg
